Earlier results in US6759059B1.
Some compounds may have been tested in ways that are not shown here.

Settings: transbuccal lozenge; Farrar et al. 1998

CCC(=O)N(c1ccccc1)C1CCN(CCc2ccccc2)CC1
time of peak plasma concentrations: around 20 minutes
